The nature of the data set: Solubility of reaction components and additives in MS. To be noted: for Stable at T (room) for:: solution in MS.

On to `CC(C)(C)c1cc(CCC(=O)OCC(COC(=O)CCc2cc(C(C)(C)C)c(O)c(C(C)(C)C)c2)(COC(=O)CCc2cc(C(C)(C)C)c(O)c(C(C)(C)C)c2)COC(=O)CCc2cc(C(C)(C)C)c(O)c(C(C)(C)C)c2)cc(C(C)(C)C)c1O` [Irgafos 1010, [3 (3,5 di tert.butyl 4 hydroxyphenyl) propionate]], for which the “Solubility in MS, T (room)” value is listed as “Dissolved” (4.1 wt %, 0.5 g in 10 ml MS); “Dissolved” (4.8 wt %, 0.6 g in 10 ml MS); “Dissolved” (5.6 wt %, 0.7 g in 10 ml MS); “Dissolved” (6.3 wt %, 0.8 g in 10 ml MS); “Dissolved” (20.2 wt %, 3.0 g in 10 ml MS). Further, the “Stable at T (room) for:” value amounted to 6 h (4.1 wt %); 6 h (4.8 wt %); 6 h (5.6 wt %); 6 h (6.3 wt %); 6 h (20.2 wt %).

In the case of `Cc1cc(O)ccc1O` [Methyl hydroquinone], the “Stable at T (room) for:” value by setting is: (0.8 wt %) more than 48 h; (7.8 wt %, result in words) “Crystalized”.

(Values after patent US7671165B2, “Method of forming polycarbonate” (Sabic Innovative Plastics IP B.V., priority 2008, dated 2010).)
